Source: PubChem BioAssay AID652010 (The Scripps Research Institute Molecular Screening Center, 2013)
Only a part is listed here, and it is no random draw. Some salts or complexes appear as unconnected parts, following the source record. Active and inactive are the calls of the source.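 Rule for the calls: active = inhibition above the mean over all tested compounds plus 3 SD (cut at about 3.6% in these data); inactive = the rest.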

Assay: DAX1 (NR0B1) inhibitors on StAR promoter, primary screen, cell-based, luminescence, SF-1 (NR5A1), full-length DAX-1 (AID 652010);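 note: 0% = DAX-1 cells with DMSO and 100% = cells lacking DAX-1 with DMSO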
Conditions: HEK293T StAR-luciferase reporter, SF-1/DAX-1 repression relief; at 6.8 µM; stronger effect = higher value

| SMILES | inhibition |
| --- | --- |
| Cc1nc2ccc3ccccc3c2s1.O=[N+]([O-])c1cc([N+](=O)[O-])c(O)c([N+](=O)[O-])c1 | inactive: 0.71% |
| O=[N+]([O-])c1cc([N+](=O)[O-])c(-c2cnn(-c3ccccc3)c2)c([N+](=O)[O-])c1 | inactive: -1.56% |
| CN(Cc1cccnc1)C(=O)COc1ccc(Cl)c(Cl)c1.O=[N+]([O-])c1cc([N+](=O)[O-])c(O)c([N+](=O)[O-])c1 | inactive: 1.81% |
| O=[N+]([O-])c1cc([N+](=O)[O-])c(-n2nnc3ccccc32)c([N+](=O)[O-])c1 | inactive: -0.42% |
| COc1ccc(-c2ccccn2)cc1.O=[N+]([O-])c1cc([N+](=O)[O-])c(O)c([N+](=O)[O-])c1 | inactive: 1.44% |
| CCCOc1ccc(NP(C)(=O)Oc2ccc(Cl)cc2)cc1 (centres undefined) | inactive: -0.71% |
| CP(=O)(Nc1ccc(SC(F)(F)F)cc1)Oc1ccccc1 (centres undefined) | inactive: -1.28% |
| COc1ccccc1OP(C)(=O)Nc1c(C)cccc1C (centres undefined) | inactive: -0.35% |
| CN1CCCCC1COC(=O)C1(O)c2ccccc2CCc2ccccc21 (centres undefined) | inactive: -0.52% |
| CCOC(=O)C(CC)C1=NC(C)(C)Cc2ccccc21.O=[N+]([O-])c1cc([N+](=O)[O-])c(O)c([N+](=O)[O-])c1 (centres undefined) | inactive: 0.21% |
| O=[N+]([O-])c1cc([N+](=O)[O-])c(Nc2nnnn2CCO)c([N+](=O)[O-])c1 | inactive: 0.26% |
| CC1=NCCc2c1[nH]c1ccccc21.O=[N+]([O-])c1cc([N+](=O)[O-])c(O)c([N+](=O)[O-])c1 | inactive: 0.74% |
| O=C(O)c1cccc(Nc2c([N+](=O)[O-])cc([N+](=O)[O-])cc2[N+](=O)[O-])c1 | inactive: -0.12% |
| Cc1ccc(C)c(NP(C)(=O)Oc2ccccc2)c1 (centres undefined) | inactive: -0.08% |
| Cc1cc(C)cc(OP(C)(=O)Nc2ccccn2)c1 (centres undefined) | inactive: -0.24% |
| CP(=O)(Nc1cccc(Br)c1)Oc1ccccc1 (centres undefined) | inactive: -1.01% |
| CCOC(=O)c1ccc(NP(C)(=O)Oc2cc(C)cc(C)c2)cc1 (centres undefined) | inactive: -0.24% |
| Cc1cc(C)cc(OP(C)(=O)Nc2ccc(C)cc2C)c1 (centres undefined) | inactive: -0.54% |
| COc1ccccc1OP(C)(=O)Nc1cccc(Br)c1 (centres undefined) | inactive: -0.53% |
| COc1ccccc1-c1ccccn1.O=[N+]([O-])c1cc([N+](=O)[O-])c(O)c([N+](=O)[O-])c1 | inactive: 1.58% |
| CCN(CC)CCCOC(=O)C(O)(c1ccccc1)c1ccccc1 | inactive: 1.69% |
| Cc1cc(C)cc(OP(C)(N)=O)c1 (centres undefined) | inactive: 0.93% |
| COc1ccc(OP(C)(=O)Nc2cccc(F)c2)cc1 (centres undefined) | inactive: -0.21% |
| COc1ccccc1OP(C)(=O)Nc1cc(Cl)ccc1C (centres undefined) | inactive: -0.2% |
| Cc1ccc(NP(C)(=O)Oc2ccccc2)c(C)c1 (centres undefined) | inactive: -0.55% |

| SMILES | inhibition |
| --- | --- |
| COc1ccccc1OP(C)(=O)Nc1ccc(C)cc1 (centres undefined) | inactive: 0.09% |
| CCOC(=O)c1ccc(NP(C)(=O)Oc2ccccc2)cc1 (centres undefined) | inactive: -0.6% |
| O=[N+]([O-])c1ccc2c(c1)C=Nc1ccccc1O2 | inactive: -0.47% |
| Cc1cccc(C)c1OP(C)(N)=O (centres undefined) | inactive: 0.48% |
| CC(C)(C)c1ccc(OP(C)(=O)Nc2ccc(SC(F)(F)F)cc2)cc1 (centres undefined) | inactive: -0.4% |
| O=[N+]([O-])c1cc([N+](=O)[O-])c(Nc2cccnc2)c([N+](=O)[O-])c1 | inactive: -0.67% |
| CP(=O)(Nc1ccccc1Br)Oc1ccccc1 (centres undefined) | inactive: -0.68% |
| COc1ccccc1OP(C)(=O)Nc1ccccc1 (centres undefined) | inactive: 0.91% |
| CP(=S)(Nn1cnnc1)Oc1ccccc1 (centres undefined) | inactive: -0.29% |
| CP(=O)(Nc1ccccn1)Oc1ccc(Cl)cc1 (centres undefined) | inactive: -0.33% |
| CCOC(=O)c1ccc(NP(C)(=O)Oc2ccc(OC)cc2)cc1 (centres undefined) | inactive: -0.21% |
| O=[N+]([O-])c1cc([N+](=O)[O-])c(O)c([N+](=O)[O-])c1.c1ccc(Oc2ccncc2)cc1 | inactive: -0.73% |
| CCOP(C)(=S)SCC(=O)NC(C)C(=O)O (centres undefined) | inactive: 1.35% |
| Cc1cc(C)cc(OP(C)(=O)Nc2ccc(SC(F)(F)F)cc2)c1 (centres undefined) | inactive: -0.47% |
| CP(=O)(NC(=O)Nc1ccccc1)Oc1ccccc1 (centres undefined) | inactive: -0.32% |
| CCc1ccc(OP(C)(=O)N2CCN(c3ccc([N+](=O)[O-])cc3)CC2)cc1 (centres undefined) | inactive: -0.79% |
| CP(=O)(Oc1ccccc1)OC(c1ccccc1)C(F)(F)F (centres undefined) | inactive: -0.58% |
| Cc1cccc(C)c1OP(C)(=O)Nc1ccc(SC(F)(F)F)cc1 (centres undefined) | inactive: 0.3% |
| CP(=O)(Nc1ccc(SC(F)(F)F)cc1)Oc1ccc(Cl)cc1 (centres undefined) | inactive: -0.04% |
| CN(C)C(=O)c1c([N+](=O)[O-])cc([N+](=O)[O-])cc1[N+](=O)[O-] | inactive: -1.99% |
| COc1ccccc1OP(C)(=O)Nc1ccccc1Br (centres undefined) | inactive: -1.48% |
| CC(C)(C)c1ccc(OP(C)(=O)O)cc1 | inactive: -0.28% |
| CP(=O)(Nc1ccc(Cl)cc1)Oc1ccc(F)cc1 (centres undefined) | inactive: -1.26% |
| O=C(OCCCN1CCCC1)C(O)(c1ccccc1)C1CCCCC1 (centres undefined) | inactive: 0.13% |
| COc1ccccc1OP(C)(=O)Nc1c(C)n(C)n(-c2ccccc2)c1=O (centres undefined) | inactive: 0.11% |

| SMILES | inhibition |
| --- | --- |
| CCc1ccc(OP(C)(=O)Nc2cccnc2)cc1 (centres undefined) | inactive: 0.63% |
| CP(=O)(Oc1ccccc1)N1CCOC1=O (centres undefined) | inactive: -0.68% |
| COc1ccc(OP(C)(=O)Nc2ccc(Br)cc2)cc1 (centres undefined) | inactive: 0.09% |
| CCN(CC)CC(O)COC(=O)C(O)(c1ccccc1)C1CCCCC1 (centres undefined) | inactive: 0.23% |
| CCOC(=O)c1ccc(NP(C)(=O)Oc2ccc(Cl)cc2)cc1 (centres undefined) | inactive: -0.97% |
| CP(=O)(OC12CC3CC(CC(C3)C1)C2)OC12CC3CC(CC(C3)C1)C2 | inactive: -0.76% |
| Nc1ccc2c(ccc3cccnc32)n1.O=[N+]([O-])c1cc([N+](=O)[O-])c(O)c([N+](=O)[O-])c1 | inactive: 0.44% |
| CCCCCCCCCCCCCCCC1C[N+](C)(C)CCOP(C)(=O)O1 (centres undefined) | inactive: -0.67% |
| CP(=O)(Nc1ccc(Cl)cc1Cl)Oc1ccccc1 (centres undefined) | inactive: -0.11% |
| CP(=O)(OCCOc1ccccc1)OCCOc1ccccc1 | inactive: 1.13% |
| COc1ccccc1OP(C)(=O)Nc1ccc(C)c(C)c1 (centres undefined) | inactive: -0.19% |
| COc1ccc(OP(C)(=O)Nc2ccccc2Br)cc1 (centres undefined) | inactive: -0.08% |
| Cc1cc(C)cc(OP(C)(=O)Nc2cccc(C(F)(F)F)c2)c1 (centres undefined) | inactive: 0.22% |
| O=C1C(O)=C([N+](=O)[O-])C(=O)C(O)=C1[N+](=O)[O-] | inactive: -0.18% |
| COc1ccccc1OP(C)(=O)Nc1ccc(C)cc1C (centres undefined) | inactive: 0.41% |
| CP(=O)(Nc1ccccn1)Oc1ccccc1 (centres undefined) | inactive: 0.05% |
| CCc1ccc(OP(C)(=O)O)cc1 | inactive: -0.59% |
| Cc1c(NP(C)(=O)Oc2ccc(C(C)C)cc2)c(=O)n(-c2ccccc2)n1C (centres undefined) | inactive: 0.12% |
| O=[N+]([O-])c1cc([N+](=O)[O-])c(Nc2ccccn2)c([N+](=O)[O-])c1 | inactive: -3.42% |
| COc1ccc(OP(C)(=O)Nc2ccccn2)cc1 (centres undefined) | inactive: 0.11% |
| CN(C)CCOC(=O)C(O)(c1ccccc1)C1CCCC1 (centres undefined) | inactive: 0.65% |
| COc1ccccc1OP(C)(=O)Nc1ccc(Br)cc1 (centres undefined) | inactive: -0.66% |
| COc1ccc2c(c1O)-c1c(O)c(OC)cc3c1[C@H](C2)[N+](C)(C)CC3.O=[N+]([O-])c1cc([N+](=O)[O-])c([O-])c([N+](=O)[O-])c1[O-] | inactive: -0.63% |
| O=C(OC1CN2CCC1CC2)c1ccc([N+](=O)[O-])cc1 (centres undefined) | inactive: 0.19% |
| O=C(OCCN1CCN(CCOCc2ccccc2)CC1)C(O)(c1ccccc1)c1ccccc1 | inactive: -0.41% |

| SMILES | inhibition |
| --- | --- |
| CP(=O)(Nc1ccccc1F)Oc1ccccc1 (centres undefined) | inactive: -0.08% |
| CC(C)c1ccc(OP(C)(=O)Nc2ccc(SC(F)(F)F)cc2)cc1 (centres undefined) | inactive: -0.05% |
| O=[N+]([O-])c1cc([N+](=O)[O-])c(Nc2ccc(Cl)cc2)c([N+](=O)[O-])c1 | inactive: -4.73% |
| CP(=O)(Nc1ccccc1)Oc1ccc(F)cc1 (centres undefined) | inactive: -0.04% |
| CCCCCOc1ccc(NP(C)(=O)Oc2ccc(Cl)cc2Cl)cc1 (centres undefined) | inactive: 0.02% |
| O=[N+]([O-])c1cc([N+](=O)[O-])c(OC2CCCCC2O)c([N+](=O)[O-])c1 (centres undefined) | inactive: 0.28% |
| Cc1c([N+](=O)[O-])cc([N+](=O)[O-])c(Br)c1[N+](=O)[O-] | inactive: -0.44% |
| CCN(CC)CCCOC(=O)C(O)(c1ccccc1)C1CCCCC1 (centres undefined) | inactive: -0.55% |
| CCOC(=O)c1ccc(NP(C)(=O)Oc2ccc(F)cc2)cc1 (centres undefined) | inactive: -0.21% |
| COc1ccc(OP(C)(=O)Nc2ccc(SC(F)(F)F)cc2)cc1 (centres undefined) | inactive: 0.36% |
| CCN(CC)CCCNc1ccccc1[N+](=O)[O-].O=[N+]([O-])c1cc([N+](=O)[O-])c(O)c([N+](=O)[O-])c1 | inactive: 2.13% |
| Cc1c(C(c2ccc3c(c2)OCO3)c2c(C)n(C)n(-c3ccccc3)c2=O)c(=O)n(-c2ccccc2)n1C.O=[N+]([O-])c1cc([N+](=O)[O-])c(O)c([N+](=O)[O-])c1 | inactive: -0.14% |
| O=[N+]([O-])c1ccc(OP2(=O)COCCO2)cc1 (centres undefined) | inactive: -0.34% |
| O=[N+]([O-])c1cc([N+](=O)[O-])c(NCC2CCS(=O)(=O)C2)c([N+](=O)[O-])c1 (centres undefined) | inactive: -0.81% |
| Cc1cc(-c2cccc3ccccc23)c(C)cn1.O=[N+]([O-])c1cc([N+](=O)[O-])c(O)c([N+](=O)[O-])c1 | inactive: -0.15% |
| CN(C)CCOC(=O)C(O)(c1ccccc1)C1CCCCC1 (centres undefined) | inactive: 0.12% |
| COc1ccc(NP(C)(=O)Oc2ccccc2OC)cc1 (centres undefined) | inactive: -0.5% |
| COc1ccc(OP(C)(=O)Nc2cccc(Br)c2)cc1 (centres undefined) | inactive: -0.55% |
| Cc1ccccc1NP(C)(=O)Nc1ccccc1C | inactive: 0.54% |
| O=[N+]([O-])c1cc([N+](=O)[O-])c(C(F)(F)F)c([N+](=O)[O-])c1O | inactive: 0.19% |
| CP(=O)(Nc1ccc2c(c1)OCCO2)Oc1ccccc1 (centres undefined) | inactive: -1.22% |
| CCOP(C)(=S)SCC(=O)NC(C)(CC)C(=O)O (centres undefined) | inactive: -0.72% |
| CCOP(=O)(CC)OCC | inactive: 0.57% |
| CP(=O)(Nc1ccc(SC(F)(F)F)cc1)Oc1ccc(F)cc1 (centres undefined) | inactive: -0.5% |
